Test results: patent publication US20060223846A1, “Aza-bridged-bicyclic amino acid derivatives as alpha4 integrin antagonists” (priority 2005, published 2006)
Like-named read-outs stand apart in the source and are kept apart here.

Protein sequences, listed by entry. Tags and fused reporters are not part of them. Residues count along the entry.
UniProt P13612, 34-1032 limits assumed: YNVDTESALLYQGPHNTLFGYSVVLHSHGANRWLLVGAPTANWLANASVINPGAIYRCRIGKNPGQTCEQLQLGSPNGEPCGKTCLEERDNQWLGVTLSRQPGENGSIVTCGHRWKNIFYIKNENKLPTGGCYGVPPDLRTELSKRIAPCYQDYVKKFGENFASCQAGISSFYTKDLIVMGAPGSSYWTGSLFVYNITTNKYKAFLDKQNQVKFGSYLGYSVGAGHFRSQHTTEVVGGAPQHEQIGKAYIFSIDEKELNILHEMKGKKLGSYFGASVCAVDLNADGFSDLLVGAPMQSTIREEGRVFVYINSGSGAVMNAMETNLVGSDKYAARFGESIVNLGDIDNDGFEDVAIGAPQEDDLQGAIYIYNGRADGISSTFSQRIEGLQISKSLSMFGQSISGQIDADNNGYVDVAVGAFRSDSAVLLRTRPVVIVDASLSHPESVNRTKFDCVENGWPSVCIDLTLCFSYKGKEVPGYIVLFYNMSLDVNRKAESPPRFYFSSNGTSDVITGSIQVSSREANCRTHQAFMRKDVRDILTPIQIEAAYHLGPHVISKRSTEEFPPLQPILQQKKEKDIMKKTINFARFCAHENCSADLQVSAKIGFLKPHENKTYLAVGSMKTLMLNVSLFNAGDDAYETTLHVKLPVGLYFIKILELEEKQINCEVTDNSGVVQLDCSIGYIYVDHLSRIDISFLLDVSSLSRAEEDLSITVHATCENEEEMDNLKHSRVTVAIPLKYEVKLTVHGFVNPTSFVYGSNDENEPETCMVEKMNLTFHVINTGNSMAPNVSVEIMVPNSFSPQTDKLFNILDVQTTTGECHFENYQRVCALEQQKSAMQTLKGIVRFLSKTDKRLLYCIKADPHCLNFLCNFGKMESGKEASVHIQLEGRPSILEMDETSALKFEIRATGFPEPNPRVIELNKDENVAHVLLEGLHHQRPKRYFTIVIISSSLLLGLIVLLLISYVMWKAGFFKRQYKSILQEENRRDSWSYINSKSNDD
UniProt P26010, 20-798 limits assumed: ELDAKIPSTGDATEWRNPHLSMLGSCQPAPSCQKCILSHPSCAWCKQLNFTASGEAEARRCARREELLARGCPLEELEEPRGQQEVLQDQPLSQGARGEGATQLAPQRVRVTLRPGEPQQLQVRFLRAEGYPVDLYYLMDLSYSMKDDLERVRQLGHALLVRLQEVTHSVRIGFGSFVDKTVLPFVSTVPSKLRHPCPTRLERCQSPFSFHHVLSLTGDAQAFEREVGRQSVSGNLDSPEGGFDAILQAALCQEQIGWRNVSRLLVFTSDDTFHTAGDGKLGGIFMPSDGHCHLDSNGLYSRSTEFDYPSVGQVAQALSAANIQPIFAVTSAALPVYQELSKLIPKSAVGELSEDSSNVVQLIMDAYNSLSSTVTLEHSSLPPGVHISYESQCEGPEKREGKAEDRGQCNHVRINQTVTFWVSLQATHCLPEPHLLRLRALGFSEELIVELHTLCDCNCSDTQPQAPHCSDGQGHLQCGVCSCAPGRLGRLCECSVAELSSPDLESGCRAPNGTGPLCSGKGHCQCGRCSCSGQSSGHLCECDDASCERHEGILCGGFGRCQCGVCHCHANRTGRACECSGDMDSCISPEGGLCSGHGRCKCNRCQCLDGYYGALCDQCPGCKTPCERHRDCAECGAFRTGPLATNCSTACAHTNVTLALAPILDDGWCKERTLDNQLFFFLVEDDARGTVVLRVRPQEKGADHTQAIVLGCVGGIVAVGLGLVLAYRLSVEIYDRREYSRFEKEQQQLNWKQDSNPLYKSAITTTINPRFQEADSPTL
UniProt P05556, 21-798 limits assumed: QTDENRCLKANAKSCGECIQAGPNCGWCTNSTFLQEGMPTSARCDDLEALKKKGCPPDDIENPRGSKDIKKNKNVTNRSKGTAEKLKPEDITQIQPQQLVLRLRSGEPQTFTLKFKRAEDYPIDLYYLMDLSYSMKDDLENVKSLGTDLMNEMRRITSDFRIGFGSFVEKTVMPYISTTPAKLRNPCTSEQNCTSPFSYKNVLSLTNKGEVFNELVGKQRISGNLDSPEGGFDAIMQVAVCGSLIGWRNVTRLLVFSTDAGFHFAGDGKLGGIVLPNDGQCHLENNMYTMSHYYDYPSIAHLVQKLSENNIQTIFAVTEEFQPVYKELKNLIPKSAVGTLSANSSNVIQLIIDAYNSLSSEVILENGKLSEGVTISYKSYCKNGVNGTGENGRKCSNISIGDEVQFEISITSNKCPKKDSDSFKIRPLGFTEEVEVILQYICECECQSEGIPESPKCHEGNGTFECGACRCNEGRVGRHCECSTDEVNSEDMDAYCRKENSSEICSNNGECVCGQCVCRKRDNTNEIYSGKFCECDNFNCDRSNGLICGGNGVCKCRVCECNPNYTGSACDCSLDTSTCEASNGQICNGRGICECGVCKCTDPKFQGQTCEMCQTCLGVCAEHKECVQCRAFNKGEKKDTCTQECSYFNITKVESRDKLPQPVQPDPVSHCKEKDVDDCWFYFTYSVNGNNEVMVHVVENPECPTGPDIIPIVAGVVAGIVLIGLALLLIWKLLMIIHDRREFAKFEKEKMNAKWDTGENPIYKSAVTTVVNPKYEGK

How the values were obtained:
[1] = target: human α4β7 (Homo sapiens, UniProt P13612+P26010); experiment: α4β7-K562 Cell Adhesion Assay (α4β7 Mediated Adhesion/VCAM-1); conditions: read-out: α4β7 IC50, K562 cells expressing human α4β7 on recombinant hVCAM-1
[2] = target: α4β1 (Homo sapiens, UniProt P05556+P13612); experiment: Ramos Cell Adhesion Assay (α4β1 Mediated Adhesion/VCAM-1); conditions: read-out: α4β1 IC50, Ramos cells on recombinant hVCAM-1

| IC50 ([1]; tested form: TFA) | IC50 ([2]; tested form: TFA) | IC50 [1] | IC50 [2] | Compound |
| --- | --- | --- | --- | --- |
| 0.131 µM | 0.116 µM | – | – | COc1ccc(OC)c(CC(=O)N2C3CCC(CC3)C2C(=O)N[C@@H](Cc2ccc(NC(=O)c3c(Cl)cncc3Cl)cc2)C(=O)O)c1 (stereo partly drawn) |
| – | – | 0.017 µM | – | O=C(Nc1ccc(C[C@H](NC(=O)C2C3CCC(CC3)N2C(=O)CCc2ccoc2)C(=O)O)cc1)c1c(Cl)cncc1Cl (stereo partly drawn) |
| – | – | 0.007 µM | 0.002 µM | COc1ccc(CCC(=O)N2C3CCC(CC3)C2C(=O)N[C@@H](Cc2ccc(NC(=O)c3c(Cl)cncc3Cl)cc2)C(=O)O)cc1 (stereo partly drawn) |
| – | – | 0.119 µM | 0.038 µM | CC(C)(C)C(=O)N1C2CCC(CC2)C1C(=O)N[C@@H](Cc1ccc(NC(=O)c2c(Cl)cncc2Cl)cc1)C(=O)O (stereo partly drawn) |
| – | – | 0.019 µM | < 0.003 µM | O=C(Nc1ccc(C[C@H](NC(=O)C2C3CCC(CC3)N2C(=O)CCc2cccs2)C(=O)O)cc1)c1c(Cl)cncc1Cl (stereo partly drawn) |
